Source: ChEMBL document CHEMBL2086370 (J Med Chem, 2012)

The chains behind the UniProt entries cited, without tags or fusion partners.
UniProt P41146, whole entry: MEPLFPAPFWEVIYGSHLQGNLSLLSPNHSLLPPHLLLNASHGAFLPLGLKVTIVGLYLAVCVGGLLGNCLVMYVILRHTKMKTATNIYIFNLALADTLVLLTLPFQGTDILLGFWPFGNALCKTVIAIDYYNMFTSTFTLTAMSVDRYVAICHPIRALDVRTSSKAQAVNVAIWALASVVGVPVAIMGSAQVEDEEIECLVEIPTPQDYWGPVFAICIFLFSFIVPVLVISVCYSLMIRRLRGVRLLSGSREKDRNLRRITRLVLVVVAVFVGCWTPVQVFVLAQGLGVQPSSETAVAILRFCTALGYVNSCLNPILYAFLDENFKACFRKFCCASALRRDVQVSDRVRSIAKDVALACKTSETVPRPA

Molecular target: Nociceptin receptor (Homo sapiens) (UniProt P41146)
Test: Agonist activity at human cloned NOP receptor expressed in CHO cell membranes after 30 mins by [35S]GTPgammaS binding assay relative to nociceptin

Question: With `CNC(=O)Cn1c(=O)n(C2CCN([C@@H]3Cc4cccc5cccc3c45)CC2)c2ccccc21` as the compound, how does the Efficacy read?
Answer: 129%
